Results on two compounds are retold here after ChEMBL document CHEMBL1139831, “The influence of modifications in imide fragment structure on 5-HT(1A) and 5-HT(7) receptor affinity and in vivo pharmacological properties of some new 1-(m-trifluoromethylphenyl)piperazines” (Bioorg Med Chem, 2007).

Test [1] is filed under the species Mus musculus. The settings on record: Swiss Albino, 5 mg/kg.
The species entered for test [2] is Mus musculus. The note with it: Swiss Albino, 5 mg/kg. The source holds these as a separate data set.
The species named for test [3] is Mus musculus. The settings on record: Swiss Albino, 0.1 mg/kg.
For test [4], the species on record is Mus musculus. The settings on record: Swiss Albino, 0.1 mg/kg. The source holds these as a separate data set.
The species entered for test [5] is Mus musculus. The settings on record: Swiss Albino, 0.1 mg/kg. This is another data set of the same source.
Test [6] is filed under the species Mus musculus. The note with it: Swiss Albino, 0.1 mg/kg. This is another data set of the same source.

For the compound `CCCN(CCC)C1CCc2cccc(O)c2C1` (stereo unspecified), the deltaT is -0.1 °C in the test listed under Mus musculus [1] and 0.2 °C in the test filed under Mus musculus [2].

Turning to `COc1ccccc1N1CCN(CCN(C(=O)C2CCCCC2)c2ccccn2)CC1` [WAY-100,635], the deltaT in the test filed under Mus musculus [3] is 0.1 °C; in the test listed under Mus musculus [4] it was 0.1 °C; in the test listed under Mus musculus [5] it was -0.1 °C; in the test listed under Mus musculus [6], -0.1 °C.
